Measurements: patent US11291705B2, “Use of caspase-3 inhibitors and caspase-3 activators in the manufacture of medicament for treating cancer and wound healing” (Technion Research & Development Foundation Limited, priority 2016, dated 2022)

Target: T1, recombinant human cleaved Caspase-3 (Homo sapiens, UniProt P42574)
T1 construct: Recombinant human cleaved Caspase-3 was incubated with α-Catenin for 2 hours; purchased BD Bioscience
T1 sequence (P42574 29-175 limits assumed): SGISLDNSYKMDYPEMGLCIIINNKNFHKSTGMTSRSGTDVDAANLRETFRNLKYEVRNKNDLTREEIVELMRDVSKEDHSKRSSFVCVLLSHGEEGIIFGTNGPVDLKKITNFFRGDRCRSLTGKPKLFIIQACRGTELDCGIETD
T1 sequence (P42574 176-277 limits assumed): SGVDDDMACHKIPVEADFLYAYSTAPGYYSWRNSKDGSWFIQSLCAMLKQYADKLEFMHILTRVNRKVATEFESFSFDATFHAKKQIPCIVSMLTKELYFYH
Test: In vitro cleavage assay of recombinant human α-Catenin by caspase-3
Format: biochemical
Settings: Caspase-3 incubated with α-Catenin for 2 hours, Ac-DEVD-CHO 1 μg; Coomassie
Experimental: In Vitro Cleavage Assay—Recombinant human α-Catenin protein (2.5 μg; Abcam) and recombinant active-caspase 3 (100 ng; BD Bioscience) were incubated at 37° C. for 2 h in cleavage assay buffer (20 mM PIPES, 100 mM NaCl, 10 mM DTT, 1 mM EDTA, 0.1% (w/v) CHAPS, 10% sucrose, pH 7.2) containing either DMSO or Ac-DEVD-CHO (SEQ ID NO: 75. 1 μg; BD Bioscience) as indicated. Reactions were stopped by addition of Laemmli sample buffer, and subjected to SDS/PAGE.
In order to examine if Caspase-3 cleaves α-Catenin, the present inventors conducted an in vitro cleavage assay. Recombinant human cleaved Caspase-3 was incubated with α-Catenin for 2 hours and products were separated using SDS-electrophoresis and Coommasie staining.

- α-Catenin cleavage products: no cleavage products
Substance: Ac-DEVD-CHO
